Source: ChEMBL document CHEMBL1134132, “Development of potent and selective factor Xa inhibitors” (Bioorg Med Chem Lett, 2001)

Protein sequences, listed by entry. Tags and fused reporters are not part of them. Residues count along the entry.
UniProt P00742, 41-179 limits assumed: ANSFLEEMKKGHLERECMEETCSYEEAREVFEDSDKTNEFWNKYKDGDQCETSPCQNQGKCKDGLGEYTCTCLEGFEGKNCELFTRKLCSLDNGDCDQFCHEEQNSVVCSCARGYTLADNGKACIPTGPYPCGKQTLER
UniProt P00742, 235-488 limits assumed: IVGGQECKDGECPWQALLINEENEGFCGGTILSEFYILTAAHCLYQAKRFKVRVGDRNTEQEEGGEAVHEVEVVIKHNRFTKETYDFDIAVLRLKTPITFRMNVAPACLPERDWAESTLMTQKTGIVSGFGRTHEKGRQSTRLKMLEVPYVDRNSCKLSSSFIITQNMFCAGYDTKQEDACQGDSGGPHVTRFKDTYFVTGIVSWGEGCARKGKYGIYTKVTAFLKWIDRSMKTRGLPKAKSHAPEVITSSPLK

Target: Coagulation factor X (Homo sapiens, UniProt P00742)
Assay: Inhibitory activity against Coagulation factor X in human plasma
Type: cell-free

- Ki: 4.3 µM
Compound: Cc1ccc(O)c(-c2cc3cc(C(=N)N)ccc3[nH]2)c1
